Screening data as filed in PubChem BioAssay.
This is a sample that favours compounds with a hit; in the whole collection about 16% have one here.
uPA generation: cell surface uPA generation inhibition | 330,000 compounds, 0.31% hits | cell surface uPA generation assay, qHTS | Potency, µM (doses to about 38.3 µM), for the others: top-dose activity change, negative = inhibition, hits mostly inhibitors; active means well fitted inhibition curve with a large enough effect; inconclusive means small, poorly fitted or top-dose-only effect; inactive means no such curve, though single readings can be large or run the other way; tested in mouse RAW 264.7 cells; further: potency means the concentration at half of the fitted maximal effect; on the % scale 0 is the no-effect control and ±100 the full control effect; nearly all actives have a fitted effect of over 55% in size
DT40 TDP1 CPT: growth inhibition of DT40 Tdp1-/-;hTDP1 cells with camptothecin (screen for TDP1 inhibitors) | chicken DT40 Tdp1-/-;hTDP1 cells + 20 nM CPT, ATP luminescence, 48 h | Potency, µM (highest dose often 46.2 µM), for inactives: top-dose activity change, negative = growth inhibition, actives largely listed as inhibitors | 420,000 compounds, 12% hits; further: potency means the concentration at half of the fitted maximal effect; on the % scale 0 is the no-effect control and ±100 the full control effect; nearly all actives have a fitted effect of over 55% in size
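Cell growth measured by CellTiter-Glo luminescence after a minimum 48 h, 37 C compound exposure with 20 nM CPT in Tdp1-knockout DT40 cells stably expressing hTDP1, seeded 400/well; qHTS titration format.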
TDP1 inh: blocks human tyrosyl-DNA phosphodiesterase 1. Q9NUW8. Potency, µM (doses to about 130 µM), for the others: at the highest dose activity change, negative = inhibition, hits mostly inhibitors. recombinant TDP1, AlphaScreen DNA substrate cleavage. 350,000 compounds, 0.28% hits; further: potency means the concentration at half of the fitted maximal effect; on the % scale 0 is the no-effect control and ±100 the full control effect; nearly all actives have a fitted effect of over 40% in size
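Here, a 5' biotin and 3' phosphotyrosine-FITC DNA oligonucleotide reports Tdp1 activity: intact substrate bridges AlphaScreen beads, while cleavage leaves a 3' phosphate and drops signal. All incubations at room temperature.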
TDP1 cell noCPT: qHTS for Inhibitors of human tyrosyl-DNA phosphodiesterase 1 (TDP1): qHTS in cells in absence of CPT; DT40 Tdp1-/- hTDP1 cells, no CPT, ATP luminescence, 48 h; Potency, µM (titrated, usually from 46.2 µM), for the others: top-dose activity change, negative = growth inhibition, usual class: inhibitors; 420,000 compounds, 15% hits; AID 686978, 2013; further: potency means the concentration at half of the fitted maximal effect; on the % scale 0 is the no-effect control and ±100 the full control effect; nearly all actives have a fitted effect of over 55% in size
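Chicken DT40 Tdp1-/- cells complemented with human TDP1, screened without camptothecin (DMSO vehicle only), 400 cells/well. Compounds pin-transferred, cells incubated at 37 °C for at least 48 hr. Growth read as ATP-dependent luminescence (CellTiter-Glo, 30 min at RT).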
miR-21 reporter: miR-21 reporter, rising signal. HeLa miR-21 FLuc reporter, luciferase, 48 h. Potency, µM (highest dose often 38.3 µM), for the others: at the highest dose reporter change, positive = more light. 340,000 tested, under 10 active. AID 2288; active = well fitted rising curve with a large enough effect; inconclusive = small, poorly fitted or top-dose-only effect; inactive = no such curve, though single readings can be large or run the other way;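 further: % of control where 0% means no effect; miR-21 action dims this reporter so a rising signal means less miR-21 action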
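Using DMEM plus 10% FBS, HeLa miR-21-FLuc cells are incubated with test compounds (final up to about 40uM) for 48 hours; firefly luciferase signal is then imaged following reagent-mediated lysis.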
The depositor's hits bear a star; ? = inconclusive; · = no result given; [ ] = dose if it differs, or a comment. Unless noted, the call rests on the fitted dose curve; in most records, active means well fitted curve in the direction sought with a large enough effect; inconclusive means small, poorly fitted or top-dose-only effect, or another doubt; inactive means no such curve, though single readings can be large; an effect the other way counts as inactive or inconclusive.

#1 CC(=O)Nc1ccc(NC(=O)C/C(C)=N/NC(=O)COc2cc(C)c(Br)cc2Br)cc1
#2 COc1cccc(N2C(=O)C(CC(=O)Nc3ccc(Cl)cc3)N(Cc3ccc4c(c3)OCO4)C2=O)c1 (stereo unspecified)
#3 COc1cc(NC(=O)c2cc3ccccc3cc2O)c(OC)cc1Cl
#4 O=C1c2ccccc2C(=O)c2c(/C=C/N3CCCCC3)ccnc21
#5 CCN(CC1COc2ccccc2O1)C(=S)NCCCN(C)C (stereo unspecified)
#6 CN(CC1COc2ccccc2O1)C(=S)NC1CCCCC1 (stereo unspecified)
screen / no. | 1 | 2 | 3 | 4 | 5 | 6
DT40 TDP1 CPT | -19% | ? | 15µM* | 6.5µM* | 16µM* | ?
TDP1 cell noCPT | -1% | ? | 10µM* | 10µM* | 18µM* | ?
miR-21 reporter | 0% | 10% | 26% | · | -7% | -21%
TDP1 inh | -1% | 4% | · | · | -3% | 7%
uPA generation | 3% | · | -3% | -2% | 2% | -3%

#7 CCN(CC1COc2ccccc2O1)C(=S)Nc1ccccc1 (stereo unspecified)
#8 CCOC(=O)c1ccc(NC(=O)CC2COc3ccccc3O2)cc1 (stereo unspecified)
#9 S=c1[nH]nc(-c2ccccn2)n1/N=C/c1cccc(Cl)c1
#10 O=C1CCCN1c1ccc(S(=O)(=O)N2CCN(c3ccccn3)CC2)cc1
#11 Cc1ccc(S(=O)(=O)N2CCCC(c3nnc4n3-c3ccccc3SC4)C2)cc1 (stereo unspecified)
#12 COc1ccccc1N1CCN(C2CCCN(S(=O)(=O)c3ccc(C)cc3)C2)CC1 (stereo unspecified)
screen / no. | 7 | 8 | 9 | 10 | 11 | 12
DT40 TDP1 CPT | ? | 3% | -14% | ? | ? | ?
TDP1 cell noCPT | 2.8µM* | 1µM* | -11% | -18% | 15µM* | ?
miR-21 reporter | 8% | -1% | 1% | -8% | -7% | 9%
TDP1 inh | 1% | -1% | -2% | -3% | 8% | 3%
uPA generation | · | 7% | 0% | · | -8% | -6%

#13 CC(OC(=O)C1=Cc2ccccc2OC1)C(=O)NCC1CCCO1 (stereo unspecified)
#14 CC1=CC(=O)C(Sc2ccc(C)cc2)=CC1=O
#15 Cc1ccc(Sc2c(C)[nH]n(C(C)(C)C)c2=O)cc1
#16 NCCC[C@@H](CC(=O)N[C@@H]1CCCC[C@H]1C(=O)N[C@H](CC(=O)N[C@@H](CCC(=O)O)CC(=O)O)Cc1ccccc1)NC(=O)C[C@H](Cc1c[nH]c2ccccc12)NC(=O)[C@@H]1CNCC[C@H]1N
#17 Cc1cccc(N=Nc2c(C)c(C#N)c(O)[nH]c2=O)c1
#18 CCCCOC(=O)c1ccc(N=Nc2c(C)c(C#N)c(O)[nH]c2=O)cc1
screen / no. | 13 | 14 | 15 | 16 | 17 | 18
DT40 TDP1 CPT | ? | 1.8µM* | -24% | · | 33% | ?
TDP1 cell noCPT | -15% | 1.6µM* | -11% | · | 9% | 23µM*
miR-21 reporter | · | · | 2% | · | -11% | -21%
TDP1 inh | · | · | 1% | 6% | 6% | 3%
uPA generation | 5% | · | 0% | · | -1% | -4%

#19 c1cnc2c(OCc3cn4cccnc4n3)cccc2c1
#20 O=[N+]([O-])c1cc(-c2nc(-c3ccccc3)no2)ccc1N1CCCC1
#21 COCCNc1nc(NCc2ccccc2OC)c2cnn(C)c2n1
#22 Clc1ccccc1Nc1nc(NCC2CC2)nc2ccsc12
#23 CNc1nc(NCCOc2ccccc2Cl)c2sccc2n1
#24 O=C(NCCOc1ccccc1Cl)C(=O)NCCOc1ccccc1Cl
screen / no. | 19 | 20 | 21 | 22 | 23 | 24
DT40 TDP1 CPT | -3% | -7% | ? | 21µM* | 9.2µM* | 5%
TDP1 cell noCPT | 29µM* | -12% | ? | 21µM* | 9.2µM* | -24%
miR-21 reporter | -31% | 4% | 0% | · | · | -1%
TDP1 inh | -3% | 0% | 4% | · | · | 0%
uPA generation | 1% | · | · | · | · | 10%

#25 Clc1ccccc1OCCNc1nc(NCC2CC2)nc2ccsc12
#26 COc1ccccc1CNc1nc(NCCOc2ccccc2Cl)c2sccc2n1
#27 O=C(c1ccc(N2CCCC2=O)cc1)N1CCN(c2ccccc2Cl)CC1
#28 O=C(c1ccc(F)cc1)C(CCCCCC(CN1CCOCC1)C(=O)c1ccc(F)cc1)CN1CCOCC1 (stereo unspecified)
#29 OC(CN1CCOCC1)c1ccc(F)cc1 (stereo unspecified)
#30 NCCNC(=O)Cc1cccc(NC(=O)Cc2ccc(Nc3ncnc4c3ncn4[C@@H]3O[C@H](CO)[C@@H](O)[C@H]3O)cc2)c1
screen / no. | 25 | 26 | 27 | 28 | 29 | 30
DT40 TDP1 CPT | 16µM* | 10µM* | -13% | ? | 5% | 10%
TDP1 cell noCPT | 8.2µM* | 12µM* | ? | 18µM* | -6% | 1%
miR-21 reporter | · | · | · | 10% | 2% | -30%
TDP1 inh | · | · | -1%[56.1 µM] | 4% | -1% | ·
uPA generation | · | · | -1% | -7% | -11% | -16%

#31 CC1(C)CC(=O)c2cnc(NC(=O)Cc3ccc(Cl)cc3)nc2C1
#32 CC(OC(=O)c1ccc([N+](=O)[O-])o1)C(=O)NC1CCCCC1C (stereo unspecified)
#33 O=C(CSCc1ccccc1Br)N/N=C/c1ccc(OCC(=O)N2CCCCC2)cc1
#34 O=C(CSCc1ccccc1)N/N=C/c1ccc(OCC(=O)N2CCCCC2)cc1
#35 COc1cc(CNC(=O)c2ccc3nc(CCc4ccccc4)oc3c2)cc(OC)c1OC
#36 COc1cc(C(=O)NCCCc2ccccc2)cc(OC)c1OC
screen / no. | 31 | 32 | 33 | 34 | 35 | 36
DT40 TDP1 CPT | ? | -14% | -7% | -6% | 21µM* | 12%
TDP1 cell noCPT | 23µM* | 0% | 2.9µM* | -26% | 21µM* | -39%
miR-21 reporter | -8% | · | 1% | -3% | 15% | 7%
TDP1 inh | 2% | -13% | 3% | 7% | 3% | ·
uPA generation | 5% | 3% | 4% | -4% | · | -1%

#37 COc1cc(CNC(=O)c2ccc3nc(Cc4ccccc4)oc3c2)cc(OC)c1OC
#38 CCOc1ccc(CNC(=O)c2ccc3nc(Cc4ccc(OC)cc4)oc3c2)cc1OC
#39 COc1cc(CC(=O)NCCCc2ccccc2)cc(OC)c1OC
#40 COc1ccc(Cc2nc3ccc(C(=O)NCCc4ccc(OC)c(OC)c4)cc3o2)cc1
#41 CCNC(=O)c1ccc2nc(Cc3ccccc3)oc2c1
#42 COc1ccccc1C(=O)NCC(=O)NNC(=O)c1cccs1
screen / no. | 37 | 38 | 39 | 40 | 41 | 42
DT40 TDP1 CPT | 6.5µM* | 18µM* | ? | ? | ? | 1%
TDP1 cell noCPT | 2.6µM* | 13µM* | 21µM* | ? | ? | 0%
miR-21 reporter | ? | 10% | 0% | 22% | -47% | ·
TDP1 inh | 5% | 9% | 4% | 2% | -1% | 0%
uPA generation | · | · | -1% | · | · | 9%

Given as tab-separated lines: entries from further up.
#	Molecule	DT40 TDP1 CPT	TDP1 cell noCPT	miR-21 reporter	TDP1 inh	uPA generation
40	COc1ccc(Cc2nc3ccc(C(=O)NCCc4ccc(OC)c(OC)c4)cc3o2)cc1	?	?	22%	2%	·
39	COc1cc(CC(=O)NCCCc2ccccc2)cc(OC)c1OC	?	21µM*	0%	4%	-1%
37	COc1cc(CNC(=O)c2ccc3nc(Cc4ccccc4)oc3c2)cc(OC)c1OC	6.5µM*	2.6µM*	?	5%	·
38	CCOc1ccc(CNC(=O)c2ccc3nc(Cc4ccc(OC)cc4)oc3c2)cc1OC	18µM*	13µM*	10%	9%	·

Further compounds:
#43 CCN1C(=O)[C@H]2[C@H]3[C@H](O)[C@H](O)C/C(=N/OCc4ccccc4)[C@H]3CC[C@@H]2C1=O
#44 O=C(O)/C=C/c1ccc([N+](=O)[O-])o1
#45 CN1CCN(C(=O)/C=C/c2ccc([N+](=O)[O-])o2)CC1
#46 COc1ccc(S(N)(=O)=O)cc1C(=O)NCC(C)(C)N1CCOCC1
#47 CCOc1ccc(N(C)S(=O)(=O)c2ccc(C)c(C(=O)NCCc3ccc(OC)cc3)c2)cc1
#48 COc1ccc(N(C)S(=O)(=O)c2ccc(Cl)c(C(=O)NCC(C)(C)N3CCOCC3)c2)cc1
screen / no. | 43 | 44 | 45 | 46 | 47 | 48
DT40 TDP1 CPT | · | -2% | 9.2µM* | 19% | 23µM* | 9.2µM*
TDP1 cell noCPT | · | -28% | 15µM* | -4% | ? | 9.2µM*
miR-21 reporter | · | -5% | 28% | 0% | · | ·
TDP1 inh | 13%[21 µM] | 32µM* | · | 8% | 0% | 2%
uPA generation | · | -2% | ? | 5% | -5% | -4%
